{"source": "paper PMC7000712", "about": "“A kinetic method for measuring agonist efficacy and ligand bias using high resolution biosensors and a kinetic data analysis framework” (Scientific Reports, 2020)", "key": {"angiotensin AT1 receptor [1]": {"target": "T1, angiotensin AT1 receptor (Homo sapiens, UniProt P30556)", "assay": "Arrestin-3 (β-arrestin2) mNeonGreen biosensor recruitment, AT1 receptor, HEK 293 T cells (time course)", "assay_type": "cell-based"}, "angiotensin AT1 receptor [2]": {"target": "T1, angiotensin AT1 receptor", "assay": "Diacylglycerol production, Red Downward DAG sensor, AT1 receptor, HEK 293 T cells", "assay_type": "cell-based", "conditions": "32 μM"}, "angiotensin AT1 receptor [3]": {"target": "T1, angiotensin AT1 receptor", "assay": "Ca^2+ mobilization, R-GECO sensor, AT1 receptor, HEK 293 T cells", "assay_type": "cell-based", "conditions": "32 μM"}, "angiotensin AT1 receptor [4]": {"tested_on": "angiotensin AT1 receptor", "assay": "Bias ratio, arrestin recruitment over DAG (kτ ratio)", "conditions": "32 μM; kτ normalized to AngII for arrestin divided by that for DAG"}, "angiotensin AT1 receptor [5]": {"tested_on": "angiotensin AT1 receptor", "assay": "Bias ratio, arrestin recruitment over Ca^2+ mobilization (kτ ratio)"}, "angiotensin AT1 receptor [6]": {"tested_on": "angiotensin AT1 receptor", "conditions": "cited from earlier work"}, "[7]": {"conditions": "32 µM, association exponential fit, Supplementary Table S1"}, "[8]": {"conditions": "mean kτ of ligand divided by that for AngII"}}, "note": "Where two headings read alike, the source gives them in different places.", "data": [{"compound": "CC[C@H](C)[C@H](NC(=O)[C@H](Cc1ccc(O)cc1)NC(=O)[C@@H](NC(=O)CN)C(C)C)C(=O)N[C@@H](Cc1cnc[nH]1)C(=O)N1CCC[C@H]1C(=O)N[C@@H](Cc1ccccc1)C(=O)O", "values": [{"measurement": "Plateau", "setting": "angiotensin AT1 receptor [1]; [7]", "value": "0.44 ± 0.00", "unit": "NFU"}, {"measurement": "kobs", "setting": "angiotensin AT1 receptor [1]; [7]", "value": "0.85 ± 0.05", "unit": "min⁻¹"}, {"measurement": "t1/2 of arrestin recruitment", "setting": "angiotensin AT1 receptor [1]; 32 µM, calculated from kobs (t1/2 = 0.693/kobs)", "value": "49 ± 3", "unit": "s"}, {"measurement": "kτ (% AngII), arrestin (single concentration)", "setting": "angiotensin AT1 receptor [1]; 32 μM, mean kτ of ligand divided by that for AngII", "value": 92, "unit": "% AngII"}, {"measurement": "Emax, 1 minute time point", "setting": "angiotensin AT1 receptor [1]; 1 min (rise phase), sigmoid fit, representative experiments", "value": 103, "unit": "% Ang II"}, {"measurement": "Emax, 20 minute time point", "setting": "angiotensin AT1 receptor [1]; 20 min (plateau), sigmoid fit, representative experiments", "value": 100, "unit": "% Ang II"}, {"measurement": "KA", "setting": "angiotensin AT1 receptor [1]; calculated from the mean pKA value, L50 of Plateau × kobs vs concentration curve", "value": 130, "unit": "nM"}, {"measurement": "kτ, initial rate of arrestin recruitment (concentration-response)", "setting": "angiotensin AT1 receptor [1]; concentration-response method, asymptote of Plateau × kobs vs concentration, mean ± s.e.m., three experiments (SII n = 2), NFU, normalized fluorescence units, HEK 293 T, DPBS, Biotek Synergy Mx", "value": "0.38 ± 0.02", "unit": "NFU.min^−1"}, {"measurement": "kτ (% AngII), arrestin (concentration-response)", "setting": "angiotensin AT1 receptor [1]; concentration-response method, mean kτ of ligand divided by that for AngII", "value": 93, "unit": "% AngII"}, {"measurement": "Emax, kinetic model initial rate", "setting": "angiotensin AT1 receptor [1]; concentration-response of the initial rate, repeated from Table 1 in Supplementary Table S2", "value": 93, "unit": "% Ang II"}, {"measurement": "arrestin recruitment efficacy at the initial rate (in words)", "setting": "angiotensin AT1 receptor [1]; initial rate, kτ method", "value": "effectively full agonists"}, {"measurement": "pKA", "setting": "angiotensin AT1 receptor [1]; ligand affinity from L50 of Plateau × kobs vs concentration curve, mean ± s.e.m., three experiments (SII n = 2)", "value": "6.90 ± 0.04"}, {"measurement": "EC50", "setting": "angiotensin AT1 receptor [1]; read-out: EC50, 1 minute time point, 1 min (rise phase), sigmoid fit, representative experiments", "value": 0.1, "unit": "µM"}, {"measurement": "EC50", "setting": "angiotensin AT1 receptor [1]; read-out: EC50, 20 minute time point, 20 min (plateau), sigmoid fit, representative experiments", "value": 0.014, "unit": "µM"}, {"measurement": "kτ, arrestin (single concentration)", "setting": "angiotensin AT1 receptor [1]; single maximally-stimulating concentration 32 μM, Plateau × kobs, mean ± s.e.m., three experiments (SII n = 2)", "value": "0.37 ± 0.02", "unit": "NFU.min^−1"}, {"measurement": "kτ, diacylglycerol", "setting": "angiotensin AT1 receptor [2]; C of rise-and-fall exponential fit, mean ± s.e.m., three experiments", "value": "2.1 ± 0.1", "unit": "NFU.min^−1"}, {"measurement": "kτ (% AngII), diacylglycerol", "setting": "angiotensin AT1 receptor [2]; [8]", "value": 120, "unit": "% AngII"}, {"measurement": "kτ, calcium", "setting": "angiotensin AT1 receptor [3]; C of rise-and-fall exponential fit with drift, mean ± s.e.m., three experiments", "value": "2.5 ± 0.2", "unit": "NFU.min^−1"}, {"measurement": "kτ (% AngII), calcium", "setting": "angiotensin AT1 receptor [3]; [8]", "value": 110, "unit": "% AngII"}, {"measurement": "Arrestin/DAG kτ ratio (% AngII ratio)", "setting": "angiotensin AT1 receptor [4]", "value": 0.74}, {"measurement": "Arrestin/Ca^2+ kτ ratio (% AngII ratio)", "setting": "angiotensin AT1 receptor [5]; 32 μM, kτ normalized to AngII for arrestin divided by that for Ca^2+", "value": 0.81}, {"measurement": "signaling bias, arrestin vs Gq (in words)", "setting": "angiotensin AT1 receptor [5]; kτ ratio arrestin/Ca^2+, relative to AngII", "value": "unbiased, relative to AngII"}, {"measurement": "signaling bias, arrestin vs G-protein (in words, literature)", "setting": "angiotensin AT1 receptor [6]", "value": "balanced ligand (relative to AngII)"}, {"measurement": "signaling bias, arrestin vs G-protein (in words, literature)", "setting": "angiotensin AT1 receptor [6]; listed as TRV 055", "value": "unbiased relative to AngII"}]}]}
